Test results published in patent US9012606B2, “In vivo half life increased fusion protein or peptide maintained by sustained in vivo release, and method for increasng in vivo half-life using same” (Alteogen, Inc., priority 2009, dated 2015).

Legend:
[1] = Pharmacokinetics of hGH and hGH/alpha-1 antitrypsin fusions (serum ELISA); assay type: in vivo; settings: Sprague-Dawley rats, subcutaneous, 720 μg/kg
Description: An anti-human growth hormone monoclonal antibody (Medix Biochemica, Finland) was diluted to a concentration of 1-5 μg/mL in phosphate buffered saline (PBS) and the dilution was aliquoted in an amount of 100 μL/well onto a 96-well plate (Nunc, Denmark) and incubated at room temperature for 15-18 hrs. After the antibody remaining suspended was removed, PBS containing 1% bovine serum albumin was plated in an amount of 250 μL/well and incubated at room temperature for 2 hours. The plates were washed three times with wash buffer (0.05% Tween 20, PBS) and the solution was aspirated. Samples were diluted in PBS containing 1% bovine serum albumin and added to the 96-well plates before incubation at room temperature for 2 hrs. […] To each well was added 100 μL of 1 M sulfuric acid to terminate the reaction, followed by measuring absorbance at 450 nm on a VersaMax microplate reader (Molecular Device, U.S.A.). Values for each sample were calculated by regression analysis after a standard curve was plotted for a reference material.
Sprague-Dawley rats were used as experimental animals and three of them were administered with human growth hormone while five rats were assigned to each of the fusion-administered groups. […] Each sample was analyzed in the same manner as the enzyme immunoassay of Test Example 1.

[2] = In vivo activity: body weight change in pituitary gland-removed rats; set-up: species or system Sprague-Dawley rats; settings: subcutaneous 18 μg per rat every day, day 7
Description: Pituitary gland-removed Sprague-Dawley rats were used as experimental animals and divided into three groups of seven. To the hypophysectomyzed Sprague-Dawley rats, the human growth hormone/alpha-1 antitrypsin monovariant fusion [T109: α1AT(P357N)/hGH] prepared in Example 2 and human growth hormone (Eutropin, LG Life Sciences Ltd, Korea) were subcutaneously injected at doses of 18 μg and 5 μg per rat, respectively, every day. For a control, PBS was used. The rats were weighed every day after being injected.

[3] = tested on: rat lymphoma cell line (NB2 cell); assay: In vitro activity in NB2 cells (MTS method); assay type: cell-based; settings: 48 hrs
Description: The rat lymphoma cell line (NB2 cell) was maintained in RPMI1640 supplemented with 10% HS (Horse serum), 10% FBS, 2-mercaptoethanol and antibiotics at 37° C. under a 5% CO2 condition. For 24 hrs before experiment, NB2 cells were incubated in RPMI 1640 supplemented with 10% HS. Thereafter, the NB2 cells were washed once with 1×DPBS (Dulbecco's Phosphate Buffered Saline), and plated at a density of 2×10^4 cells/100 μL/well in 5% HS-supplemented RPMI 1640 in 96-well plates (Corning, U.S.A.) with final volume of 100 μL. A series of concentrations of the samples were added in an amount of 20 μL to each well of the 96-well plates, followed by incubation at 37° C. for 48 hrs under a 5% CO2 condition. Subsequently, 20 μL of an MTS solution (Promega, U.S.A.) was added to each well of the 96-well plates and allowed to react at 37° C. for 3 hrs under a 5% CO2 condition. The reaction was terminated by adding 20 μL of 10% SDS (sodium dodecyl sulfate) to each well. Absorbance was measured at 490 nm using a VersaMax microplate reader (Molecular Device, U.S.A.).

[4] = biological target: T1, trypsin (Bos taurus, UniProt P00760); assay: Inhibitory activity against trypsin; assay type: biochemical; settings: trypsin and fusion 10 nM each, 1 hr room temperature
T1 construct: gene PRSS1
T1 sequence (P00760 24-246): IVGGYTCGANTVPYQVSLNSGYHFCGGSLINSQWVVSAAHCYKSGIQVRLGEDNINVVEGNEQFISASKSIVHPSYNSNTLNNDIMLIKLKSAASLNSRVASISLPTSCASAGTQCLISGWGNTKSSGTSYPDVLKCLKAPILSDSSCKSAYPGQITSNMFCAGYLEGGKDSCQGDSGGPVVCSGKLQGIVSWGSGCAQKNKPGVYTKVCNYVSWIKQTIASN
Description: (§1) The human growth hormone/alpha-1 antitrypsin fusion [T109wt: α1AT/hGH] prepared in Example 1 and the human growth hormone/alpha-1 antitrypsin monovariant fusion [T109: α1AT(P357N)/hGH] prepared in Example 1 were separately mixed with trypsin. Trypsin and the fusions were used at a concentration of 10 nM, respectively. After being incubated at room temperature for 1 hr, the mixture was reacted with 0.2 mM of the substrate N-Benzoyl-Val-Gly-Arg p-nitroanilide hydrochloride (Sigma, U.S.A.), followed by measuring absorbance at 405 nm. Trypsin unit was set to be the concentration of substrate causing a change in absorbance of 0.001 and the enzyme activity was expressed as units/mg trypsin. For comparison, trypsin was used as a control.

[5] = biological target: T2, human neutrophil elastase (Homo sapiens, UniProt P08246); assay: Inhibitory activity against human neutrophil elastase; assay type: biochemical; settings: elastase and fusion 40 nM each, 1 hr room temperature
T2 sequence (P08246 30-267): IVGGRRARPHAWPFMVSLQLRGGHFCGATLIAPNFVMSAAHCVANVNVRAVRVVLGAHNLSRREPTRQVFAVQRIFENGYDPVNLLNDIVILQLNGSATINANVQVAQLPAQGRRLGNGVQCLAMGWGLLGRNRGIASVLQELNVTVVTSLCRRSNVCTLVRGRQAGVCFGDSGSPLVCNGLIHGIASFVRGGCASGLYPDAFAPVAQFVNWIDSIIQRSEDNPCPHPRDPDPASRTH
Description: as §1, with “with human neutrophil elastase. The elastase” for “with trypsin. Trypsin”, “of 40” for “of 10”, “with 1” for “with 0.2”, “substrate MeOSuc-AAPV-pNA (Santa Cruz Biotechnology, Inc.,” for “substrate N-Benzoyl-Val-Gly-Arg p-nitroanilide hydrochloride (Sigma,”, “nm. Human neutrophil elastase” for “nm. Trypsin”, “units/mg elastase.” for “units/mg trypsin. For comparison, trypsin was used as a control.”

EC50 [3]: 0.181 nM
Ka (association equilibrium constant) with trypsin [4]: about 8.0×10^6 M^−1
Ka with human neutrophil elastase [5]: about 1.4×10^7 M^−1
B1: human growth hormone/alpha-1 antitrypsin monovariant fusion (protein)
chain: EDPQGDAAQKTDTSHHDQDHPTFNKITPNLAEFAFSLYRQLAHQSNSTNIFFSPVSIATAFAMLSLGTKADTHDEILEGLNFNLTEIPEAQIHEGFQELLRTLNQPDSQLQLTTGNGLFLSEGLKLVDKFLEDVKKLYHSEAFTVNFGDTEEAKKQINDYVEKGTQGKIVDLVKELDRDTVFALVNYIFFKGKWERPFEVKDTEEEDFHVDQVTTVKVPMMKRLGMFNIQHCKKLSSWVLLMKYLGNATAIFFLPDEGKLQHLENELTHDIITKFLENEDRRSASLHLPKLSITGTYDLKSVLGQLGITKVFSNGADLSGVTEEAPLKLSKAVHKAVLTIDEKGTEAAGAMFLEAINMSIPPEVKFNKPFVFLMIDQNTKSPLFMGKVVNPTQKGGGGS[sequence of about 200 residues omitted]
modifications: T109 [alpha-1AT(P357N)/hGH]
notes: hGH fused to C-terminus of alpha-1 antitrypsin monovariant P357N
serum half-life (t1/2) [1]: 5.4 h
time to peak serum concentration (Tmax) [1]: 12 h
weight gain [2]: ~9.4%
